The values below come from patent publication US4386099A, “Imidazolylphenyl amidines, pharmaceutical compositions containing same and use thereof” (Istituto de Angeli S.p.A., priority 1980, dated 1983).

By UniProt entry, the sequences of proteins in these tests, tags left out.
UniProt P47747, whole entry: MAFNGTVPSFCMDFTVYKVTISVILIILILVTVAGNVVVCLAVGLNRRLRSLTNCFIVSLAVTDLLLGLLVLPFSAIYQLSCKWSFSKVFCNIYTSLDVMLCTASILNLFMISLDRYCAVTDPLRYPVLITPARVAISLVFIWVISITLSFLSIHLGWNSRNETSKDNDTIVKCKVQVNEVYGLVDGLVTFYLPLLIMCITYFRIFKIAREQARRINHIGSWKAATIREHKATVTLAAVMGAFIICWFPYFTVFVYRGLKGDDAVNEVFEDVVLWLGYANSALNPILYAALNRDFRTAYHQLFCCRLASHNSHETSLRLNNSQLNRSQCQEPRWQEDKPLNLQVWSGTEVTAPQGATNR

The target in the assay is T1, histamine H2-receptors (Cavia porcellus, UniProt P47747).
T1 construct: isolated guinea pig atria suspended in an organ bath; from tissue; host or cells: isolated guinea pig atria
The assay can be described thus: In vitro inhibitory activity in histamine-induced tachycardia (positive chronotropic effect, isolated guinea pig atria). Format: cell-based. Here is the method:
The positive chronotropic effect has been investigated in isolated guinea pig atria suspended in an organ bath (50 ml) containing oxygenated (O2 : 95%, CO2 : 5%) Krebs-Henseleit solution (pH 7.4) maintained at 32° C. The myocardial preparation, loaded at 1 gm of isometric tension, is allowed to stabilize for 60 minutes and myocardial contractions are recorded through an isometric lever connected to a strain-gauge coupler. The instantaneous rate is monitored with a cardiotachymeter and a heat-writing pen recorder. After a control run, responses (tachycardia) to histamine (10^-6 g/ml) are obtained three times at 30 minute intervals. The test compounds are added to the bath to the desired final concentration, and the atria are again injected with histamine. The chronotropic response obtained in the presence of the antagonist is then compared to the control response to histamine, and the percent reduction of the histamine H2 -evoked response is calculated. The average effective concentration (EC50) of the H2 -antagonists is also calculated by standard repression analysis of the dose percentage response curve determined according to D. R. Waud, Analysis of Dose-response Curves, in "Methods in Pharmacology", vol. 3 Smooth Muscle, Ed Daniel E. E. Patron, M., Plenum Press. New York (1975), and Ash and Schild, Br. J. Pharmacol. Chemother. 27 427-439 (1966).

As usually defined, the EC50 is the midpoint of the concentration-response curve. Read a high EC50 as a need for much substance. The molecule `CN/C(=N/CCSCc1nc[nH]c1C)NC#N` [Cimetidine] came in with an EC50 of 3.4 µM.
